# Antibody variant affinities, Ab-14 light chain, assay 1

Antigen: PDVDLGDISGINAS, a 14-residue peptide of the SARS-CoV-2 spike HR2 region.

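The library (AAYL50) carries one to three amino acid substitutions per variant, with no insertions or deletions. Affinity was read by AlphaSeq, a pooled yeast mating assay with surface-displayed partners. Binding brings cells together so that they mate, and sequencing counts the barcode pairs among the diploids. A regression on co-assayed BCL2-family reference pairs converts the normalised counts of each replicate to an apparent Kd. Each pool was mated in three replicate cultures.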

Parent scFv Ab-14: VH joined to VL by a (GGGGS)3 linker. Changes lie in the light chain CDRs alone.
VH: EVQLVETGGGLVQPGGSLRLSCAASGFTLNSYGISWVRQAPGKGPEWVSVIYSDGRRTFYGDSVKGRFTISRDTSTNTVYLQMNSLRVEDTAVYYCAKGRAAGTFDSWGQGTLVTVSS
VL: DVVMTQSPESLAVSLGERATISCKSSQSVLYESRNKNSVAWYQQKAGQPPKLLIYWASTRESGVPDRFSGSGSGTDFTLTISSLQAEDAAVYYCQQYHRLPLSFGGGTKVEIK

Positions count from residue 1 of the parent VL; Y31Q puts Q in place of Y. The read-out is the apparent dissociation constant on a log10 scale (nM): the lower, the stronger. Replicates are averaged; those with no signal do not enter the mean. "n.d." means that the variant was in the library but no mating with the target was seen in that replicate; the authors take this as a sign of poor binding, and no number exists. As a blank, each scFv also met three strains without target: over library AAYL50, 18% of these pairings were detected, typically at 4.19 and seldom below 2.99. For each scFv, signals with the empty controls are counted beside the result, with their mean in brackets. Parent in this assay: reference entry 0.65, copy in this library 1.68.

changes | log10 Kd (nM) by replicate | mean, log10 nM | empty controls
Y31Q S58T L100I | 1.59 1.65 1.91 | 1.72 | 4/9 (3.88)
L30H S33W A40M | n.d. n.d. n.d. | n.d. | 2/9 (4.33)
S25T E32H S33N | 1.05 1.21 1.01 | 1.09 | 0/9
E32T N37Q S62V | 1.33 1.23 1.37 | 1.31 | 0/9
W56V T59E H98D | 3.05 3.23 3.40 | 3.23 | 0/9
V29C R60K Q95R | 2.88 2.70 3.12 | 2.90 | 5/9 (4.49)
K24C P101S L102H | 1.87 2.18 2.36 | 2.14 | 3/9 (4.65)
Y31L E32A S38T | n.d. n.d. n.d. | n.d. | 0/9
E32Y K36N S38Y | 2.91 3.44 3.07 | 3.14 | 1/9 (3.93)
K24A R34T H98N | 1.22 1.45 1.27 | 1.31 | 0/9
K24E L30K V39K | n.d. n.d. n.d. | n.d. | 1/9 (3.25)
K24Y N37M P101Y | n.d. 3.40 n.d. | 3.40 | 0/9
T59G P101T | 1.17 1.21 1.13 | 1.17 | 0/9
Q27C S28M S103W | 4.69 4.56 n.d. | 4.62 | 1/9 (4.41)
V39F S62G Y97G | n.d. n.d. n.d. | n.d. | 1/9 (3.83)
R34H N35T E61F | 1.14 1.09 1.20 | 1.15 | 2/9 (6.08)
A40F W56K | n.d. n.d. n.d. | n.d. | 0/9
K24W N35M S103L | n.d. 4.57 4.27 | 4.42 | 9/9 (4.56)
S26D W56V S62F | n.d. n.d. 3.15 | 3.15 | 0/9
S62F R99E L100K | n.d. n.d. n.d. | n.d. | 0/9
Q27N S38Q | 1.49 1.48 2.02 | 1.66 | 0/9
V29G R60S Q96W | n.d. n.d. n.d. | n.d. | 0/9
A40R H98A L102A | n.d. n.d. n.d. | n.d. | 0/9
K24G R34F Y97R | 1.86 1.80 2.00 | 1.89 | 2/9 (4.95)
A57P Q95N | n.d. 4.00 n.d. | 4.00 | 6/9 (4.20)
S26I Y31K V39A | n.d. n.d. n.d. | n.d. | 2/9 (3.81)
N35S A40K H98R | n.d. n.d. n.d. | n.d. | 2/9 (4.03)
S25H L100N L102G | n.d. n.d. n.d. | n.d. | 0/9
K24F Q96T L100S | 4.84 5.62 3.78 | 4.74 | 5/9 (4.52)
R60P E61M Q95S | n.d. n.d. n.d. | n.d. | 2/9 (4.39)
K24F Q27M T59H | 2.06 2.12 2.37 | 2.18 | 5/9 (4.59)
T59G L100I P101S | 3.39 4.18 3.64 | 3.73 | 5/9 (4.29)
N35M S58M S62Y | n.d. n.d. n.d. | n.d. | 0/9
S26N R34H S58H | 1.64 1.65 1.73 | 1.67 | 2/9 (4.15)
S38A W56I L102G | n.d. n.d. n.d. | n.d. | 5/9 (4.13)
S28Q N35M R99E | 1.89 1.43 2.08 | 1.80 | 1/9 (3.25)

Again, the first 2 entries without any signal:

changes	log10 Kd (nM) by replicate	mean, log10 nM	empty controls
L30H S33W A40M	n.d. n.d. n.d.	n.d.	2/9 (4.33)
Y31L E32A S38T	n.d. n.d. n.d.	n.d.	0/9

The measurements come from Engelhart et al. 2022 (doi:10.1038/s41597-022-01779-4) through the FLAb antibody collection.